Measurements from article PMC4079331 (Journal of Medicinal Chemistry, 2014).

Tests used:
[1] = Stability in mouse plasma; type: in vitro ADME; conditions: female, BALB/c, mouse plasma (pooled)
Procedure, shortened: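 Test compound at 50 μM final (1% DMSO) in pooled plasma from female BALB/c mice or human AB serum. Incubated at 37 °C with gentle agitation. Samples taken at 0, 0.5, 1, 2, 8, 18 and 24 h. Proteins precipitated with CH3CN, vortexed and centrifuged (3000g, 10 min, room temperature); supernatant analysed by LCMS. Run in triplicate.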

[2] = Plasma pharmacokinetics in BALB/c mice after a single dose; type: in vivo; conditions: mouse, blood, ip, 2.5 mg/kg

`CN1C(=O)N[C@H]2[C@@H]3NC(=O)c4ccc(Br)n4[C@@H]3C[C@]21O` [1a, (−)-Agelastatin A] showed a recovery at 24 h, 50 μM [1] of 65 to 90%, a Cmax ([2]; female) of 1650 nM and an AUC [2] of 6.26 µM·h. It also gave a half-life [2] of 1.4 h.
